{"source": "patent US6613211B1", "about": "“Capillary electrokinesis based cellular assays” (Aclara BioSciences, Inc., priority 1999, dated 2003)", "biological_target": "T1, fMLP receptor (Homo sapiens, UniProt P21462)", "T1 sequence (P21462 1-350)": "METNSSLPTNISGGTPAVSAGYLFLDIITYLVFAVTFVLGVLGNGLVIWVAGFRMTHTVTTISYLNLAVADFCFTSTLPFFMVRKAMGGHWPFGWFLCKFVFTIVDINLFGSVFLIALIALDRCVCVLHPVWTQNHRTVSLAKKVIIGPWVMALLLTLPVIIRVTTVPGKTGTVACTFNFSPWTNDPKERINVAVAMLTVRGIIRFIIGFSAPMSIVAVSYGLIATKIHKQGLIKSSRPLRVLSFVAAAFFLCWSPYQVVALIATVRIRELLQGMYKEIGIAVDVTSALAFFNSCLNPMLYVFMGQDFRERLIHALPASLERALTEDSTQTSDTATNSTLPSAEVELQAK", "experiment": "Capillary cytometric competition of labeled fMLPK binding to cells with a high level of fMLP receptor (syringe pump)", "conditions": "2.5 mM of the ligand; labeled ligand 4 nM", "experimental": "In the next study, pumping means was employed to move cells through a capillary. The cells were cultured cells having a high level of the fMLP receptor on the surface. The buffer solution was 140 mM NaCl, 1 mM KH2PO4, 5 mM Na2HPO4, 1.5 mM CaCl2, 0.3 mM MgSO4, 1 mM MgCl2, 0.2% BSA. The cell concentration in the reservoir was 10^6/ml and the receptor concentration was 413 pM. The labeled ligand was fluorescein or Cy-5 labeled fMLPK (N-formyl-Met-Leu-Phe-Lys) which competed with fMLP for receptor. […] The device was comprised of a reservoir having a volume of 500 μl into which was introduced a capillary having an I.D. of 100 μm. In place of an electroosmotic pump, a syringe pump operating at 500 μl/min applied to the other end of the capillary was employed. The reading was taken at about 100 mm from the capillary inlet. The results are shown in FIGS. 4 and 5, where TR stands for tracer, RC refers to receptor and TRC refers to both Tracer and Receptor.\nIn the following study using concentrations of the fMLPK of 0, 2.5 nM, 250 nM and 2.5 μM, following results were observed, respectively, reported as total peak height: 33, 19, <1, 0.", "data": [{"substance": "fMLP", "values": [{"measurement": "signal (peaks of labeled ligand bound to cells)", "value": "substantially no signal"}]}]}
